{
  "source": "patent US20040009189A1",
  "about": "“Antimutagenic effects of ganoderma lucidum spores” (priority 2002, published 2004)",
  "test_system": "mice bone marrow cell chromosomal aberration induced by cyclophosphamide",
  "conditions": "CP 50 mg/kg alone (positive group 4); M; 500 cells",
  "text": "The test used was the modified mice bone marrow cell micronucleus test as specified in “A Notice Concerning Issuance of the Revised Items of the ‘Health Food Functional Assessment Procedures and Testing Methods’,” a document from the Ministry of Public Health of the People's Republic of China, which is hereby incorporated by reference.\nThe mice were randomly divided by weight into 9 groups, 5 males and 5 females respectively per group. Animals in each group were given the following treatment:\nThe drug was prepared as a suspension of the required concentration in distilled water, and administered orally through tube at individual dosages of 0.2 mL/10 g of body weight. The negative control group was given distilled water of the equivalent volume through tube once a day for 30 days continuously. […] 4 hours before the mice were sacrificed they are given colchicine, and the bone marrow was extracted in order to prepare the chromosome samples in the routine way.\nSamples from each group were observed. One hundred (100) metaphase cells per mouse were observed, and the chromosomal structures and the numbers of aberrations were recorded. Using SPSS for Windows 8.0 (t-test), a comparative analysis was made of the experimental data from the various dosage groups and the positive groups and tested to find out if there was any significant difference between the males and females within the group.",
  "data": [
    {"smiles": "O=P1(N(CCCl)CCCl)NCCCO1", "note": "(stereo not shown) [CP, cyclophosphamide]", "values": [
      {"measurement": "Cell Aberration Rate (%)", "result": "*39.6%"}
    ]}
  ]
}
